SMILES strings stand for the structures. pKi: −log10 of the molar value.

Protein sequences, listed by entry. Tags and fused reporters are not part of them.
UniProt P30419, whole entry L495M: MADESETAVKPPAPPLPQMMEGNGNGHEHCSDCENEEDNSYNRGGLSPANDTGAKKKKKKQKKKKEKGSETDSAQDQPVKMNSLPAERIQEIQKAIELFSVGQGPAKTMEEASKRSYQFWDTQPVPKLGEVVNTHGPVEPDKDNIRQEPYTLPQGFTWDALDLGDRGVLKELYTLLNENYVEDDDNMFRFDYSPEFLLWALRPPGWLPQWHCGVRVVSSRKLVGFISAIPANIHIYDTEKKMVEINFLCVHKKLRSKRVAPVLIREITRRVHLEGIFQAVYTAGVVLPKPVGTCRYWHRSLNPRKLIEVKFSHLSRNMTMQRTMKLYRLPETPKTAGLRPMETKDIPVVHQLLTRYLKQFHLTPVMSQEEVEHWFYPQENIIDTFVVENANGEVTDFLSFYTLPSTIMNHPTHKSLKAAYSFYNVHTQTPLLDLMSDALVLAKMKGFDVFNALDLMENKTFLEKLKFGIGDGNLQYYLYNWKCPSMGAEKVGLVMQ

In this experiment the target is Glycylpeptide N-tetradecanoyltransferase 1 (Homo sapiens, UniProt P30419, L495M). It counts as ADME.

Take `N[C@@H](CC(=O)N1C[C@H](CO)[C@@H](c2ccc(Cl)cc2)C1)Cc1ccc(Cl)cc1`: the pKi was 6.26. Consider `COc1cccc(Cc2noc(-c3ccccc3OC3CCNCC3)n2)c1`, for which the pKi is 5.80.

As a reminder, the pKi is the Ki on a negative log10 scale, so that one unit is a factor of ten. High values mean a low Ki, low ones a high Ki.

Values taken from ChEMBL document CHEMBL4342412, “How To Design Selective Ligands for Highly Conserved Binding Sites: A Case Study Using N-Myristoyltransferases as a Model System” (J Med Chem, 2020).
